This test concerns the target Phosphatidylinositol 4,5-bisphosphate 3-kinase catalytic subunit gamma isoform (Homo sapiens, UniProt P48736). Nature of the test: Inhibition of PI3K gamma (unknown origin) by PIP3 production detection based fluorescence assay.

Chains of the proteins cited; added tags and fusions are not shown. Lines headed by an entry give the natural chain unless they say otherwise; changes in a name come on top.
UniProt P48736: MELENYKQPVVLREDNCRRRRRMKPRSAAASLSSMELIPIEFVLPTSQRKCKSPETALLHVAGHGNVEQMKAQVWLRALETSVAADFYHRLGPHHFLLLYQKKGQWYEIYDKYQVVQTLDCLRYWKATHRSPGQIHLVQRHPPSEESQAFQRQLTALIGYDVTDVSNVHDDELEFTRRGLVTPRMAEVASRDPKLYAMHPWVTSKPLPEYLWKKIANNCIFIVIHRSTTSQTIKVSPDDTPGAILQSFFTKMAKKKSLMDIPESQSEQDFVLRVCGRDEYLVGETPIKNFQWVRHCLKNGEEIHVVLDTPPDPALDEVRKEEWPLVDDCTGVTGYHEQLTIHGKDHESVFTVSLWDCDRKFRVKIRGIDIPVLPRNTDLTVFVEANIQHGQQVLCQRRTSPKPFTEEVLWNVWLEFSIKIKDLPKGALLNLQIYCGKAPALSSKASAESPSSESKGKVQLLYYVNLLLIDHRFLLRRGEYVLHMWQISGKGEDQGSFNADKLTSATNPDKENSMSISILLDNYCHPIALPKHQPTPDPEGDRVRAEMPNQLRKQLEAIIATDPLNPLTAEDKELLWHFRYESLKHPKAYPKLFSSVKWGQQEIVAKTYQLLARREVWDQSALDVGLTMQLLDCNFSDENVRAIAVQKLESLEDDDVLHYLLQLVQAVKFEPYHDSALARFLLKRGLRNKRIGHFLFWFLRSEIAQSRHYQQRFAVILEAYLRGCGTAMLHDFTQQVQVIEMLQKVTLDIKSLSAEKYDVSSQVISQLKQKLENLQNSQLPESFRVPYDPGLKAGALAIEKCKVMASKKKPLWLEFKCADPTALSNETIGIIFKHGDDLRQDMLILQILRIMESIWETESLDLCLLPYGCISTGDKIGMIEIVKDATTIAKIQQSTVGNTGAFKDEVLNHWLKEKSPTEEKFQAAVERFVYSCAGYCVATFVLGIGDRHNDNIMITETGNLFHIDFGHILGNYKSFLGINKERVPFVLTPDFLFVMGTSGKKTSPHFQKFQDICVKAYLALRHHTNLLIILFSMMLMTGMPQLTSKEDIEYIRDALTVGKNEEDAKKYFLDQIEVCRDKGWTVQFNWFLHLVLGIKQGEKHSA

This is an account of results in ChEMBL document CHEMBL5715955, “Inhibition of Human Class I vs Class III Phosphatidylinositol 3'-Kinases” (Biochemistry, 2017).

As for `CC(C)n1nc(-c2ccc3oc(N)nc3c2)c2c(N)ncnc21` [SAPANISERTIB], the 50% effective concentration (EC50) worked out at 221 nM. That is a sub-micromolar value.

As usually defined, the EC50 is the concentration at which the effect is half-maximal. A higher EC50 goes with lower potency in that assay.
